{"sequences": {"note": "Amino acid sequences for entries named in this document (tags omitted). A change or cut given only in a name is not applied to a line headed by its entry.", "UniProt P08183, whole entry": "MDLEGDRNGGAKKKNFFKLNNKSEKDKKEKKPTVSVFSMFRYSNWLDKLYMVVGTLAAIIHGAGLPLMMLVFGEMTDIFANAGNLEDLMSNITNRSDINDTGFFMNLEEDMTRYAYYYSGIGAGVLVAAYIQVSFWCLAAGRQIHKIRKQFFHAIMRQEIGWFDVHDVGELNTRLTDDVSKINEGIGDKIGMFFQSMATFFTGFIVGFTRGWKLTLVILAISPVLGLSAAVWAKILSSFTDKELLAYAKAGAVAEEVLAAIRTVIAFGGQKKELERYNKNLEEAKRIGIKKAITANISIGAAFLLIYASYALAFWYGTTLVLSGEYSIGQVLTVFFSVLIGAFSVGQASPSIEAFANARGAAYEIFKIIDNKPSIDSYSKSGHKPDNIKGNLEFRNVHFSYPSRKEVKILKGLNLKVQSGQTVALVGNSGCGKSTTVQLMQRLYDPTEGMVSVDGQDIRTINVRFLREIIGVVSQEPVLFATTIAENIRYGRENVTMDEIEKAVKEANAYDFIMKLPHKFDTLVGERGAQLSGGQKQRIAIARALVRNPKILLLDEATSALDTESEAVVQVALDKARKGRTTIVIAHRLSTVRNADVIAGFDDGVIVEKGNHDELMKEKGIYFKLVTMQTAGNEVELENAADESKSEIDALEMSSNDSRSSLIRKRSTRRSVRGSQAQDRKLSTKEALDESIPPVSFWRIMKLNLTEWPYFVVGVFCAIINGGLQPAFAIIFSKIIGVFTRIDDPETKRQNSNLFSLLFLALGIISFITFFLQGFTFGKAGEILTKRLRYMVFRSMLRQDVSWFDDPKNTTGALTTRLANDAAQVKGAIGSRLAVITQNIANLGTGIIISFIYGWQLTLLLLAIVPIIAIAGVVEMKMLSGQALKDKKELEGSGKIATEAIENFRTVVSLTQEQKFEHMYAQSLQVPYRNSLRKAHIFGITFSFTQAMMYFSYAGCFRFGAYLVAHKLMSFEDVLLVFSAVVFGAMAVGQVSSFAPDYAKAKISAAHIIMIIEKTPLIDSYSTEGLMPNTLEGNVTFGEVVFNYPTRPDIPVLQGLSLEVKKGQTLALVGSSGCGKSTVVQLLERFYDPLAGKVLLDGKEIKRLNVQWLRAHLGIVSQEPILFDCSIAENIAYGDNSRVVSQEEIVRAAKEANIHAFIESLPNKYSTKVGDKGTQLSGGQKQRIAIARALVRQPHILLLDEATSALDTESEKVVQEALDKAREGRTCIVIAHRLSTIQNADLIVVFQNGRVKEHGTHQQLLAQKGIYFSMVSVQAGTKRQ", "UniProt Q12809": "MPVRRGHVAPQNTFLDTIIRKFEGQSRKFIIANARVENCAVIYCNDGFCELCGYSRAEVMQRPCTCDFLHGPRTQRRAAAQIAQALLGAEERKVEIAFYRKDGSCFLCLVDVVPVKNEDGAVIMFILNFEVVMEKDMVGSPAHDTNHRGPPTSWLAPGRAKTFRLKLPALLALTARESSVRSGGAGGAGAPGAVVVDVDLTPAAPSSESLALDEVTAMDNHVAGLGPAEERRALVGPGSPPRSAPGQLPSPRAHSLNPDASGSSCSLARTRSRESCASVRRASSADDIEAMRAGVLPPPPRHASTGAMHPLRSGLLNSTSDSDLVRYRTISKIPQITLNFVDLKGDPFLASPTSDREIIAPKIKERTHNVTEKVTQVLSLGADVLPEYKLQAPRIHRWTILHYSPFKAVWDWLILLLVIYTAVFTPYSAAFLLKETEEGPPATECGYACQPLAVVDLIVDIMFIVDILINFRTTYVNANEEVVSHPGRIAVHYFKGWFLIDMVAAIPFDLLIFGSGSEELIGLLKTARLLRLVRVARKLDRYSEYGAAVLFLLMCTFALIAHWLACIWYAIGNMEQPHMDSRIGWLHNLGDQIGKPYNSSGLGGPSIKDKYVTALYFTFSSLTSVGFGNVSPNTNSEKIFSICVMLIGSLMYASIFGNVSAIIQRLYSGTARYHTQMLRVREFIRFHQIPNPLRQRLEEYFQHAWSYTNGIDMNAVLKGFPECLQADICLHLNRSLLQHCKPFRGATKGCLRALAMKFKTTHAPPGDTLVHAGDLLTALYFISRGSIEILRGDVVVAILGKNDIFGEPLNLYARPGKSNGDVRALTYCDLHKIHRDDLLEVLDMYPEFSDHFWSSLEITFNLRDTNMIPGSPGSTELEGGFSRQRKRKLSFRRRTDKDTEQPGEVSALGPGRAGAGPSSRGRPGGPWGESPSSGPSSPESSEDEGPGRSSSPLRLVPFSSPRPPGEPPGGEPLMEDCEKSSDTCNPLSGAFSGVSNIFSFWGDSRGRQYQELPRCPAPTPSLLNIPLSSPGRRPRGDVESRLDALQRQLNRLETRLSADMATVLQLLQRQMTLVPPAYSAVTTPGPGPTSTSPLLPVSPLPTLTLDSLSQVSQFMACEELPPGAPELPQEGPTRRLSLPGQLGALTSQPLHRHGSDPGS"}, "source": "patent US8551963B2", "about": "“Imidazolothiazole compounds and methods of use thereof” (Ambit Biosciences Corporation, priority 2008, dated 2013)", "key": {"P-Glycoprotein": {"molecular_target": "P-Glycoprotein (Homo sapiens (Human), UniProt P08183)", "assay": "Digoxin bidirectional MDR1-MDCK permeability, Compound I-1 as an inhibitor", "details": "for efflux ratio at 1 μM: dog, MDCK-MDR1, pH 7.4, Digoxin Assymetry Index"}, "hERG channel": {"molecular_target": "hERG channel (Homo sapiens (Human), UniProt Q12809)", "details": "1 μM"}, "[1]": {"details": "Table 17, Digoxin 1 μM alone, Std"}, "[2]": {"details": "Table 17, Digoxin 1 μM alone, Surf."}, "[3]": {"details": "preliminary experiment, Digoxin 1 μM alone, Std"}, "[4]": {"details": "preliminary experiment, Digoxin 1 μM alone, Surf."}}, "data": [{"smiles": "C[C@H]1O[C@@H](O[C@H]2[C@@H](O)C[C@H](O[C@H]3[C@@H](O)C[C@H](O[C@H]4CC[C@@]5(C)[C@H](CC[C@@H]6[C@@H]5C[C@@H](O)[C@]5(C)[C@@H](C7=CC(=O)OC7)CC[C@]65O)C4)O[C@@H]3C)O[C@@H]2C)C[C@H](O)[C@@H]1O", "note": "[Digoxin]", "values": [{"measurement": "Digoxin Mass Bal (AP→BL)", "setting": "P-Glycoprotein; [1]", "result": 116, "unit": "%"}, {"measurement": "Digoxin Mass Bal (BL→AP)", "setting": "P-Glycoprotein; [1]", "result": 98, "unit": "%"}, {"measurement": "Digoxin Mass Bal (AP→BL)", "setting": "P-Glycoprotein; [2]", "result": 106, "unit": "%"}, {"measurement": "Digoxin Mass Bal (BL→AP)", "setting": "P-Glycoprotein; [2]", "result": 97, "unit": "%"}, {"measurement": "efflux ratio at 1 μM", "setting": "P-Glycoprotein; [1]", "result": 3.3}, {"measurement": "efflux ratio at 1 μM", "setting": "P-Glycoprotein; [2]", "result": 2.2}, {"measurement": "efflux ratio at 1 μM", "setting": "P-Glycoprotein; [3]", "result": 83.3}, {"measurement": "Digoxin Mass Bal (AP→BL)", "setting": "P-Glycoprotein; [3]", "result": 122, "unit": "%"}, {"measurement": "Digoxin Mass Bal (BL→AP)", "setting": "P-Glycoprotein; [3]", "result": 117, "unit": "%"}, {"measurement": "Digoxin Mass Bal (AP→BL)", "setting": "P-Glycoprotein; [4]", "result": 96, "unit": "%"}, {"measurement": "Digoxin Mass Bal (BL→AP)", "setting": "P-Glycoprotein; [4]", "result": 94, "unit": "%"}]}, {"smiles": "COc1cc(N)c(Cl)cc1C(=O)NC1CCN(CCCOc2ccc(F)cc2)CC1OC", "note": "(stereo not shown) [Cisapride]", "values": [{"measurement": "% Block Trial 1", "setting": "hERG channel", "result": ">95", "unit": "%"}, {"measurement": "% Block Trial 2", "setting": "hERG channel", "result": ">95", "unit": "%"}]}]}
